One may read the IC50 as the concentration that gives 50% inhibition. Read a low IC50 as inhibition by little substance.

Here are results for one molecule from ChEMBL document CHEMBL3351445, “Potent 11β-hydroxylase inhibitors with inverse metabolic stability in human plasma and hepatic S9 fractions to promote wound healing” (J Med Chem, 2014).

The test addresses T1, Cytochrome P450 11B2, mitochondrial (Homo sapiens, UniProt P19099).
T1 sequence (P19099 whole entry): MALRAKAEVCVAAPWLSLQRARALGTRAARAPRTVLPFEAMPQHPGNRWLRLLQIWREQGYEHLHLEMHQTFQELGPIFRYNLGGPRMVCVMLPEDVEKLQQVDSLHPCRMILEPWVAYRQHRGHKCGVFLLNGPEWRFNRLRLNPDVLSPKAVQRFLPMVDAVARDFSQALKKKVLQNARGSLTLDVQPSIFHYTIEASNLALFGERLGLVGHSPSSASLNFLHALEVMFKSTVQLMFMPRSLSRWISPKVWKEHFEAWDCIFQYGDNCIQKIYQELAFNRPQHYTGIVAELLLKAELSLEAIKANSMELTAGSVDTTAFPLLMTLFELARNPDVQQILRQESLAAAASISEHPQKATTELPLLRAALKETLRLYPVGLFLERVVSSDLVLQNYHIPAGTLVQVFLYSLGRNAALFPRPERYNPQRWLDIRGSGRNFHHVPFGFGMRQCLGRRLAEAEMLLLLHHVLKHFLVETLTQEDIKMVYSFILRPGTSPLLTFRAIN
Description: Inhibition of human CYP11B2 expressed in hamster V79MZh cells using [1,2-3H]-11-deoxycorticosterone as substrate.

In the case of `CC(C)(C(=O)c1cccnc1)c1cccnc1` [METYRAPONE], inhibition was half-maximal at 0.072 µM (IC50).
